Among the data in US20120245137A1 (Zalicus Pharmaceuticals Ltd., priority 2009, published 2012) are IC50 values, retold here.

Amino acid sequences for entries named in this document (tags omitted). A change or cut given only in a name is not applied to a line headed by its entry.
UniProt O43497: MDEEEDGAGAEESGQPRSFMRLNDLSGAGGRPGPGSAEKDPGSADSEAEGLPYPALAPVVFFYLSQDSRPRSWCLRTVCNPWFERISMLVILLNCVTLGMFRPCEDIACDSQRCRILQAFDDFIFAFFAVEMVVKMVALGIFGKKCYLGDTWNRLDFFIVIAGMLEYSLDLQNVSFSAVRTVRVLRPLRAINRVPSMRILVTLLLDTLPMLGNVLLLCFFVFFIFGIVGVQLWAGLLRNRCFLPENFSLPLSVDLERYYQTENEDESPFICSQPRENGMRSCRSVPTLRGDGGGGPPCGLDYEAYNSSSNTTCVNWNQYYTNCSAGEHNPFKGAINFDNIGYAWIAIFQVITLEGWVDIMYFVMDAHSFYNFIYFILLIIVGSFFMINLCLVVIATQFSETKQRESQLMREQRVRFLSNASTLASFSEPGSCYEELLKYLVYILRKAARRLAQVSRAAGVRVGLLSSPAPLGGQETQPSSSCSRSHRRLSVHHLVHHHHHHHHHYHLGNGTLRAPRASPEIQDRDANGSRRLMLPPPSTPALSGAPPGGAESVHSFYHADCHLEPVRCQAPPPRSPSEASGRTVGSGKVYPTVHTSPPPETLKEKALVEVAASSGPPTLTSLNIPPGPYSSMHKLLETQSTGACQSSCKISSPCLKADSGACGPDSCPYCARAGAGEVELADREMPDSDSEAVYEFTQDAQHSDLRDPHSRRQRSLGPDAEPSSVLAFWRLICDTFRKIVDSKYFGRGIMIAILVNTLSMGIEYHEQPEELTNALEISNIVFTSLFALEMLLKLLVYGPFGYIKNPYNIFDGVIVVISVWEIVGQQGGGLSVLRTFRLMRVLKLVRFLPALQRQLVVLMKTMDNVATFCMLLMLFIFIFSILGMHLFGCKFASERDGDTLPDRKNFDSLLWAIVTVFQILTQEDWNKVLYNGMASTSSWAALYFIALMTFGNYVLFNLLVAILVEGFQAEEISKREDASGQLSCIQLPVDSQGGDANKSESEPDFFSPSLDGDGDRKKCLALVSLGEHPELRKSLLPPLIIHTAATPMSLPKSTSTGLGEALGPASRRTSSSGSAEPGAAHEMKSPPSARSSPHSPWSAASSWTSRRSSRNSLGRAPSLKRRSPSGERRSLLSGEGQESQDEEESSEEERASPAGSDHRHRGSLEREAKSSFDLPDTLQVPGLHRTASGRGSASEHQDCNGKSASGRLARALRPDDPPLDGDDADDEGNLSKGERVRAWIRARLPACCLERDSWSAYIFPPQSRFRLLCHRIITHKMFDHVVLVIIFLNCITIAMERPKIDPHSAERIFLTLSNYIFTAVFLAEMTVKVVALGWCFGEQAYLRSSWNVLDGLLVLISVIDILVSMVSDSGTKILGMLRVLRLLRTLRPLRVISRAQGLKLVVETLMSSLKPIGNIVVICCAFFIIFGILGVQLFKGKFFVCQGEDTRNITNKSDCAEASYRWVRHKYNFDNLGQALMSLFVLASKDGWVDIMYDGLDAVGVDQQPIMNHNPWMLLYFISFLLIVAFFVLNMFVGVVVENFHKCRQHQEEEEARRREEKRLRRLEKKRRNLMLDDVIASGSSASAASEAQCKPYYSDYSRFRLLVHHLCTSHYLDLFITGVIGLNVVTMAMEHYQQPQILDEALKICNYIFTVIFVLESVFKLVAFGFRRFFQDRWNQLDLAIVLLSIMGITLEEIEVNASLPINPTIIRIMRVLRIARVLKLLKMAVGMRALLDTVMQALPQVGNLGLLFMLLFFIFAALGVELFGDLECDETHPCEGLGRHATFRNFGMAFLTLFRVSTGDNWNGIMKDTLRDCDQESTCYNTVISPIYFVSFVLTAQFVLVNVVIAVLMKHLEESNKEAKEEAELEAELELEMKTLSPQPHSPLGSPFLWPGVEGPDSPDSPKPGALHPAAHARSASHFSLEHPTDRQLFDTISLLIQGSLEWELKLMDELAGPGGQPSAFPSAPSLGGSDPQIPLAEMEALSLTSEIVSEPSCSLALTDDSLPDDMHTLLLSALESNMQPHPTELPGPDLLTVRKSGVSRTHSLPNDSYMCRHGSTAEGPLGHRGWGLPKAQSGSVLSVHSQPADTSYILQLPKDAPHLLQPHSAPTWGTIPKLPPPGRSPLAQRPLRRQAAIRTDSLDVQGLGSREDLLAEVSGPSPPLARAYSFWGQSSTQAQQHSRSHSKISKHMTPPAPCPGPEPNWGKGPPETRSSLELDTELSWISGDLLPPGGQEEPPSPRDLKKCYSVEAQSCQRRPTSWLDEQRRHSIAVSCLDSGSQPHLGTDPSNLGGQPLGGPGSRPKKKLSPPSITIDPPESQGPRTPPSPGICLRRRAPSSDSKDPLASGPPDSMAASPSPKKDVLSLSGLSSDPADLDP
UniProt O95180: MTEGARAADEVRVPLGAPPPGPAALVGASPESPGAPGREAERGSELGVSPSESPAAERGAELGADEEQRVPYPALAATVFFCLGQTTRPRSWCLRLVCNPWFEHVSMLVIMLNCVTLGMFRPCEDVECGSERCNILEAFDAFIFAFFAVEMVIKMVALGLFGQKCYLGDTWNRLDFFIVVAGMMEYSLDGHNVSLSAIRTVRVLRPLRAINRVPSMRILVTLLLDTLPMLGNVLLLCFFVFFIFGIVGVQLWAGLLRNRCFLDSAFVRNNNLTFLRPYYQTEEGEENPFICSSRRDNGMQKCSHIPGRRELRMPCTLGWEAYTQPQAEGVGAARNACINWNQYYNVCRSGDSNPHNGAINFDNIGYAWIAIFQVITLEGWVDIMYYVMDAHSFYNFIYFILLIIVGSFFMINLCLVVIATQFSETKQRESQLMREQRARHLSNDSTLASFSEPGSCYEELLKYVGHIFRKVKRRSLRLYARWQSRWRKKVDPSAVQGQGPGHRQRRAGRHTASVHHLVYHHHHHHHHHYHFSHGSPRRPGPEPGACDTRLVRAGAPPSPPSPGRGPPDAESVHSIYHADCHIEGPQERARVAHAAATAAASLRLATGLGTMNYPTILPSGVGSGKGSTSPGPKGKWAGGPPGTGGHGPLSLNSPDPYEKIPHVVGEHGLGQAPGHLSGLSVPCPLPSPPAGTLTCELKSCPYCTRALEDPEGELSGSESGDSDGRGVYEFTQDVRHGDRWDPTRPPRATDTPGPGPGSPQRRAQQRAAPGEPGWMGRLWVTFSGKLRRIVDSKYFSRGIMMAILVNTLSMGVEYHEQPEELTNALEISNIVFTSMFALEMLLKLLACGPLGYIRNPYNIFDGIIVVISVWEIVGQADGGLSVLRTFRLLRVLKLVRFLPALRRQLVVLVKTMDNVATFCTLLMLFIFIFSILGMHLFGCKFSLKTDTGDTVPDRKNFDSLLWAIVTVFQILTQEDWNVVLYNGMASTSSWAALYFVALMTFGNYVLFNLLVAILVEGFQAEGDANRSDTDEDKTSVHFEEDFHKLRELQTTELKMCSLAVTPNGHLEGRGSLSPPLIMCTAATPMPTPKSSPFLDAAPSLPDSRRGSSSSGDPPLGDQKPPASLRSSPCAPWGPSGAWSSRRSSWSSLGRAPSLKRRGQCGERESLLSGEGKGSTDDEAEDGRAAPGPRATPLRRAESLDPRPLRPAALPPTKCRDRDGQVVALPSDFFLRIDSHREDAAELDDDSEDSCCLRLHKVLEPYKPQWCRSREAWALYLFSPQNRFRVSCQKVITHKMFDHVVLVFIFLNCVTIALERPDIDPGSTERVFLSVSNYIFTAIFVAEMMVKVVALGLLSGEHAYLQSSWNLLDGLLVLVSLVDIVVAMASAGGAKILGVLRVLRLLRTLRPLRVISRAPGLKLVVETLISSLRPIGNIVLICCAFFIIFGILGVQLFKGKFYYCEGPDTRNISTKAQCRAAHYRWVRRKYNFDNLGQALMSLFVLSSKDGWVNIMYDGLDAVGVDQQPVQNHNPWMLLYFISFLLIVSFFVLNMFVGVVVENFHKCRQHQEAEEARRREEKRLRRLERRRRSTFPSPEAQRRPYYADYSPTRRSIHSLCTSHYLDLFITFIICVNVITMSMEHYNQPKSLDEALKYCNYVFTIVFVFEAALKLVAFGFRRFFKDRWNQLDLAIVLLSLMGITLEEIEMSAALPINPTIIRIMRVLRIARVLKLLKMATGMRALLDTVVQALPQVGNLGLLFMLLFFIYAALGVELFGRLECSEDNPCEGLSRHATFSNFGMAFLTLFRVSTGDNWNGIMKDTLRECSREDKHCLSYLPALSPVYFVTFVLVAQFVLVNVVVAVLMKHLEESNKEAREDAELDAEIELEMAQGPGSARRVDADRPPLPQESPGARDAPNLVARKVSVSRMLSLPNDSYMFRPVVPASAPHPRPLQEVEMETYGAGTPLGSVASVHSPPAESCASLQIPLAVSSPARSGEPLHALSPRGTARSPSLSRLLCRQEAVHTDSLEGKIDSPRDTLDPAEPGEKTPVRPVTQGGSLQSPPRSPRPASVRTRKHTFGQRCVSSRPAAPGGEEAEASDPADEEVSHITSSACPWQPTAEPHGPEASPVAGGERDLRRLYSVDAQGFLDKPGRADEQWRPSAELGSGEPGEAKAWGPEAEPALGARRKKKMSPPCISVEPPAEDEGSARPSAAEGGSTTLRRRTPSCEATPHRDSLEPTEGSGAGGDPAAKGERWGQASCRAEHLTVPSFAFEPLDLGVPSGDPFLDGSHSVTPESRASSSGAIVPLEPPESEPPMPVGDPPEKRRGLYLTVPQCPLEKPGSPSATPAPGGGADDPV

Where only a bound is given, the exact number is not on record here.

The target in test [1] is human α1G T-type channels (Homo sapiens, UniProt O43497). The test is described as follows: T-type calcium channel block, whole cell patch clamp, α1G. Format: cell-based. Conditions: HEK cells stably expressing human α1G; mainly non-inactivated protocol; values above 10,000 nM represented as 10000. The procedure:
(§1) T-type calcium channel blocking activity was assayed in human embryonic kidneycells, HEK 293 (Invitrogen), stably transfected with the T-type calcium channel subunits. Briefly, cells were cultured in Dulbecco's modified eagle medium (DMEM) supplemented with 10% fetal bovine serum, 200 U/ml penicillin, and 0.2 mg/mL streptomycin at 37° C. with 5% CO2. At 85% confluency, cells were split with 0.25% trypsin/1 mM EDTA and plated at 10% confluency on glass coverslips. At 12 hours, the medium was replaced, and the cells stably transfected using a standard calcium phosphate protocol and the appropriate calcium channel cDNA's. Fresh DMEM was supplied, and the cells transferred to 28° C./5% CO2.
(§2) Standard patch-clamp techniques were employed to identify blockers of T-type currents. Briefly, previously described HEK cell lines stably expressing human α1G, α1H, and α1I T-type channels were used for all the recordings (passage #: 4-20, 37° C., 5% CO2). Whole cell patch clamp experiments were performed using an Axopatch 200B amplifier (Axon Instruments, Burlingame, Calif.) linked to a personal computer equipped with pCLAMP software. Data were analyzed using Clampfit (Axon Instruments) and SigmaPlot 4.0 (Jandel Scientific). […]
Background: In patch-clamp work, channel activity is measured electrically.

Test [2] deals with human α1H T-type channels (Homo sapiens, UniProt O95180). The test is described as follows: T-type calcium channel block, whole cell patch clamp, α1H. Format: cell-based. Conditions: HEK cells stably expressing human α1H; mainly non-inactivated protocol; values above 10,000 nM represented as 10000. The procedure: as §1, §2

For orientation: IC50 means the midpoint of a concentration-inhibition curve. As for “2-(methylsulfonyl)-6-(trifluoromethyl)- N-(((1S,3S)-3- (3-(trifluoromethyl) phenylsulfonyl)cyclobutyl) methyl)nicotinamide [Compound 382]”, the IC50 in test [1] and in test [2] was above 10 µM each time.
